Bioassay records: PubChem BioAssay, National Center for Advancing Translational Sciences (NCATS)
Only some compounds are listed: those with a hit (about 2.2% of all), similar ones and a draw of the others.
miR-21 reporter – miR-21 reporter, rising signal | HeLa miR-21 FLuc reporter, luciferase, 48 h | Potency, µM (top dose mostly 38.3 µM), inactives show at the top dose reporter change, positive = more light | 340,000 tested, under 10 active | AID 2288; active = well fitted rising curve with a large enough effect; inconclusive = small, poorly fitted or top-dose-only effect; inactive = no such curve, though single readings can be large or run the other way;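 further: % of control where 0% means no effect; miR-21 action dims this reporter so a rising signal means less miR-21 action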
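HeLa cells stably expressing CMV-driven firefly luciferase with a downstream miR-21 binding sequence, endogenously expressing miR-21, were treated with titrations (up to about 40uM final) for 48 hours at 37 degree Celsius. Luciferase luminescence was read after lysis.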
Nrf2 inh – Nrf2 pathway inhibition. A549 ARE-Fluc reporter, luciferase luminescence, 18-24 h. 360,000 tested, 2.1% active. Potency, µM (titrated, usually from 46 µM), for the others: at the highest dose activity change, negative = inhibition, actives largely listed as inhibitors; also: potency is read from the fitted curve at half-maximal effect; % is scaled to controls: 0 for no effect and ±100 for the full control effect; nearly all actives have a fitted effect of over 60% in size
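Reporter: ARE-Fluc in A549. Exposure: 18-24 h, 37 °C, 5% CO2, 5% FBS OPTI-MEM. Readouts: fluorescent cytotoxicity (CellTiter-Fluor), then luminescent Nrf2 signal after BugLite.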
GALK inhibitor – blocks human galactokinase activity; Purified GALK, Kinase-Glo residual ATP luminescence; Potency, µM (series often up to 57.5 µM), inactives show at the highest dose activity change, negative = inhibition, usual class: inhibitors; 270,000 tested, 0.007% active; also: potency is read from the fitted curve at half-maximal effect; % is scaled to controls: 0 for no effect and ±100 for the full control effect
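Quantitative HTS: GALK 5 nM, ATP 35 uM, galactose 100 uM, 1 h room temperature, then luciferase-based ATP detection.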
A549 viability – counter-screen for Nrf2 inhibitors: cytotoxicity in A549 cells. A549 ARE-Fluc cells, CellTiter-Fluor viability, 18-24 h. Potency, µM (titrated, usually from 46 µM), for inactives: at the top dose activity change, negative = cytotoxicity, most hits filed as inhibitors. 390,000 tested, 0.16% active; also: potency is read from the fitted curve at half-maximal effect; % is scaled to controls: 0 for no effect and ±100 for the full control effect
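A549 ARE_Fluc cells in 5% FBS OPTI-MEM were exposed to compounds in concentration-response for 18-24 h at 37 deg C. Viability was read by CellTiter-Fluor fluorescence (Ex 405/Em 525) after 30 min, before the luciferase read.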
PI4K2A inh – inhibitors of human PI4K2A; Q9BTU6; purified PI4K2A, ADP-Glo luminescence, 1 h; active compounds read low; activity change, negative = inhibition, % at 76.9 µM; 420,000 tested, 0.13% active; in the data active = activity change below about -50%; inconclusive = mostly about -30% to -49%;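 also: -100% = wells without enzyme as full effect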
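PI4K2A activity was measured by ADP-Glo luminescence: enzyme (4 ug/mL stock) and phosphatidylinositol (1.2 mM stock) in Tris pH 7.5/MgCl2/EGTA/Triton X-100 buffer were reacted with ATP (300 microM stock) for one hour at ambient temperature.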
Nrf2 activator – activates Nrf2 signaling. Potency, µM (doses to about 46.1 µM), for inactives: top-dose activation, most hits filed as activators. 410,000 tested, 0.31% active. AID 624171. AREc32 ARE-luciferase reporter (MCF7-derived line), luminescence, 24 h; also: potency is read from the fitted curve at half-maximal effect; % of control where 0% means no effect; nearly all actives have a fitted effect of over 65% in size
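For detection, Steady-Glo was added and plates sat 30 min at RT; before that, AREc32_Fluc cells grown overnight in OPTI-MEM/5% FBS had been treated with 23 nL compound for 24 hr at 37 deg C.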
* = called active by the depositor; ? = inconclusive; nt = not tested or not shown; [ ] = dose if it differs, or a comment. Unless noted, calls follow the shape of the dose curve; as a rule, active = well fitted curve in the direction sought with a large enough effect; inconclusive = small, poorly fitted or top-dose-only effect, or another doubt; inactive = no such curve, though single readings can be large; an effect the other way counts as inactive or inconclusive.

1) COC(=O)c1cc(=O)n(Cc2ccc(OC)c(OC)c2)c(=Nc2ccc(F)cc2)s1
2) COC(=O)c1cc(=O)n(CCc2ccc(OC)c(OC)c2)c(=Nc2ccc(F)c(Cl)c2)s1
3) CCOc1ccc(-c2n[nH]c3c2C(c2cccs2)N(c2ccc(Br)cc2)C3=O)cc1 (stereo not drawn)
4) CCOc1ccc(N2C(=O)c3n[nH]c(-c4cccs4)c3C2c2cccc(F)c2)cc1 (stereo not drawn)
5) CCOC(=O)c1ccc(N2C(=O)c3[nH]nc(-c4ccc(OCC)cc4)c3C2c2cccs2)cc1 (stereo not drawn)
6) CCOc1ccc(N2C(=O)c3[nH]nc(-c4ccc(OC)cc4)c3C2c2cccs2)cc1 (stereo not drawn)

Assay by compound	1	2	3	4	5	6
miR-21 reporter	-1%	-8%	?	?	28%	?
Nrf2 inh	?	23µM*	23µM*	?	18µM*	23µM*
GALK inhibitor	0%	0%	nt	nt	nt	nt
A549 viability	?	?	-24%	-22%	-21%	?
PI4K2A inh	7	3	2	0	-4	-1
Nrf2 activator	0%	0%	0%	-3%	5%	-1%

7) Cc1cc(C)cc(NC(=O)O[C@@H]2CC[C@@]34CCCN3C(=O)CCC[C@H]4C2)c1
8) Nc1cc(-c2ccncc2)c[nH]c1=O
9) Nc1cc(-c2ccccc2)c[nH]c1=O
10) NC(=S)n1[nH]c(-c2ccc([N+](=O)[O-])cc2)c(N=Nc2cccc([N+](=O)[O-])c2)c1=O
11) Cc1[nH]n(C(N)=S)c(=O)c1N=Nc1cccc([N+](=O)[O-])c1C
12) NC(=S)n1[nH]c(-c2ccc([N+](=O)[O-])cc2)c(N=Nc2ccccc2[N+](=O)[O-])c1=O

Assay by compound	7	8	9	10	11	12
miR-21 reporter	nt	-6%	nt	-2%	-36%	2%
Nrf2 inh	nt	-9%	7.3µM*	16µM*	?	13%
GALK inhibitor	nt	-2%	nt	12%	-6%	7%
A549 viability	nt	1%	5.8µM*	?	-8%	6%
PI4K2A inh	-3	-55*	nt	1	2	-6
Nrf2 activator	nt	-1%	nt	4%[9.22 µM]	9%	11%

Next part (four carried over from the part before).
9) Nc1cc(-c2ccccc2)c[nH]c1=O
10) NC(=S)n1[nH]c(-c2ccc([N+](=O)[O-])cc2)c(N=Nc2cccc([N+](=O)[O-])c2)c1=O
11) Cc1[nH]n(C(N)=S)c(=O)c1N=Nc1cccc([N+](=O)[O-])c1C
12) NC(=S)n1[nH]c(-c2ccc([N+](=O)[O-])cc2)c(N=Nc2ccccc2[N+](=O)[O-])c1=O
13) Cc1c(N=Nc2c(-c3ccc([N+](=O)[O-])cc3)[nH]n(C(N)=S)c2=O)cccc1[N+](=O)[O-]
14) CC(C)(C)OC(=O)Cc1nnc(-c2nc3ccccc3[nH]2)s1
15) O=C(Nc1cccc(Cl)c1)c1cc(-c2ccco2)on1
16) O=C(Nc1cc(Cl)ccc1O)c1cc(-c2ccco2)on1
17) COc1cccc(-c2cc(C(=O)Nc3cccnc3Cl)no2)c1
18) O=C(Nc1cc(Br)ccc1O)c1cc(-c2ccco2)on1

Assay by compound	9	10	11	12	13	14	15	16	17	18
miR-21 reporter	nt	-2%	-36%	2%	-3%	nt	-8%	-65%	-1%	-30%
Nrf2 inh	7.3µM*	16µM*	?	13%	18µM*	?	5%	-12%	25%	?
GALK inhibitor	nt	12%	-6%	7%	7%	nt	10%	0%	-2%	-8%
A549 viability	5.8µM*	?	-8%	6%	?	-3%	-1%	-4%	1%	-5%
PI4K2A inh	nt	1	2	-6	-5	nt	1	-2	1	0
Nrf2 activator	nt	4%[9.22 µM]	9%	11%	3%	nt	10%	6.3µM*	-1%	4.5µM*

19) O=C(Nc1cccnc1Cl)c1cc(-c2ccco2)on1
20) COc1ccc(C(=O)NCCN2C(=O)C3C4C=CC(C4)C3C2=O)cc1OC (stereo not drawn)
21) Cc1ccc(NC(=O)CSc2nc3nn(-c4ccccc4)c(=O)c-3c3n2CCCCC3)cc1F
22) O=C(CSc1nc2nn(-c3ccccc3)c(=O)c-2c2n1CCCCC2)Nc1cccc(F)c1
23) COCCCNC(=O)C1CCN(S(=O)(=O)c2ccc3[nH]c(=O)oc3c2)CC1
24) C[C@H](NC(=O)c1ccccc1)C(=O)N1CCN(Cc2ccc3c(c2)OCO3)CC1

Assay by compound	19	20	21	22	23	24
miR-21 reporter	-50%	nt	nt	nt	nt	nt
Nrf2 inh	?	nt	?	9.2µM*	nt	-5%
GALK inhibitor	-2%	nt	nt	nt	nt	nt
A549 viability	1%	nt	-14%	-9%	nt	-1%
PI4K2A inh	-1	0	5	4	-1	-1
Nrf2 activator	10µM*	nt	-2%	0%	nt	-1%

25) COc1ccc2cc(C(=O)N3CCN(Cc4ccc5c(c4)OCO5)CC3)[nH]c2c1
26) CC(C)[C@H](NC(=O)c1ccc(C(C)(C)C)cc1)C(=O)N1CCN(Cc2ccc3c(c2)OCO3)CC1
27) O=C(c1cccc([N+](=O)[O-])c1)N1CCN(Cc2ccc3c(c2)OCO3)CC1
28) Cc1ccc(C(=O)N2CCN(Cc3ccc4c(c3)OCO4)CC2)cc1[N+](=O)[O-]
29) CCN(CC)C(=O)CSc1nnc2nnc3cc(OC)ccc3n12
30) CCN(CC)C(=O)CSc1nnc(COc2ccc(OC)cc2)n1N

Assay by compound	25	26	27	28	29	30
miR-21 reporter	6%	nt	2%	12%	5%	4%
Nrf2 inh	21µM*	21µM*	?	16%	18µM*	-1%
GALK inhibitor	-9%	nt	0%	-2%	4%	4%
A549 viability	-26%	?	-1%	6%	?	-5%
PI4K2A inh	-5	-1	-69*	-3	-1	2
Nrf2 activator	3%	2%	1%	4%	4%	0%

31) COc1ccc(Cl)cc1NC(=O)Nc1cccc([N+](=O)[O-])c1C
32) CCCCC(=O)O[C@]1(C(=O)CO)[C@@H](C)C[C@H]2[C@@H]3CCC4=CC(=O)C=C[C@]4(C)[C@@]3(F)[C@@H](O)C[C@@]21C
33) CCn1c(SCC(=O)c2ccc(-c3ccccc3)cc2)nnc1-c1ccccc1OC
34) CCCCN1C(=O)c2[nH]nc(-c3ccccc3O)c2C1c1ccc(OCc2ccccc2)c(OC)c1 (stereo not drawn)
35) CCCCN1C(=O)c2[nH]nc(-c3ccccc3O)c2C1c1ccc(OCc2ccccc2)cc1 (stereo not drawn)
36) COCCCN1C(=O)c2[nH]nc(-c3ccccc3O)c2C1c1ccc(OCc2ccccc2)cc1 (stereo not drawn)

Assay by compound	31	32	33	34	35	36
miR-21 reporter	0%	nt	nt	?	?	?
Nrf2 inh	13µM*	nt	nt	?	15µM*	26µM*
GALK inhibitor	-1%	nt	nt	nt	nt	nt
A549 viability	-18%	nt	nt	-14%	?	?
PI4K2A inh	8	-2	11	-2	-3	0
Nrf2 activator	0%	nt	nt	0%	2%	-6%

37) O=C1C(NS(=O)(=O)c2cccs2)=C(N2CCN(c3cccc(C(F)(F)F)c3)CC2)C(=O)c2ccccc21
38) CN1CCN(C2=C(NS(=O)(=O)c3cccs3)C(=O)c3ccccc3C2=O)CC1
39) CCN(c1ccc(NC(=O)c2ccc(N3CCCC3=O)cc2)cc1)C(C)C
40) CN(C)S(=O)(=O)c1cccc(NC(=O)c2ccc(N3CCCC3=O)cc2)c1
41) CCOC(=O)c1sc(=S)n(C)c1NC(=O)c1ccccc1C
42) CCOC(=O)c1sc(=S)n(C)c1NC(=O)c1ccc(F)cc1
43) Nn1c(SCc2ccc([N+](=O)[O-])cc2)nnc1-c1cc(-c2ccccc2)n[nH]1

Assay by compound	37	38	39	40	41	42	43
miR-21 reporter	8%	6%	nt	nt	-10%	7%	nt
Nrf2 inh	21µM*	?	9.2µM*	-18%	26%	23µM*	nt
GALK inhibitor	1%	0%	nt	nt	0%	0%	nt
A549 viability	?	-20%	-21%	1%	-3%	-4%	nt
PI4K2A inh	-20	-5	0	6	0	-3	-2
Nrf2 activator	21%	-1%	-1%	-1%	2%	0%	nt
